The text below walks through data of US6352966B1, “Cleansing bars” (Albemarle Corporation, priority 2000, dated 2002).

A short description of data set [1]: Reflectance of cleansing bars. The class given is physicochemical. The following applies: bar; the higher the reflectance the whiter the bar. As to the method: (§1) The desirable properties of cleansing bars formed from fully neutralized sodium salts of various alkenyl succinic acids of this invention were determined in a further series of comparative tests. In these tests both the reflectance and the bar hardness were determined. In addition to testing bars of five different fully neutralized succinate salts of this invention, the same properties were measured on four fully compounded commercial soap bars from different well-known soap manufacturers. As can be appreciated, the higher the reflectance the whiter the bar, and the higher the hardness, the more desirable is the bar. In Table 2, the five fully neutralized alkenyl succinic acids are identified in terms of the number of carbon atoms in the alkenyl group. Thus, for example, C6 SAS represents the fully neutralized disodium salt of n-hexenyl succinic acid. As regards reflectance, Commercial Bar B is pink in color, and Commercial Bar C is a coral-orange in color. The other two commercial bars are white.

Data set [2] is described as follows: Bar hardness of cleansing bars. The class given is physicochemical. The following applies: the higher the hardness, the more desirable. As to the method:
as §1

In data set [1], “fully neutralized disodium salt of n-hexenyl succinic acid [C6 SAS]” showed a Reflectance of 92. In data set [2], the “Bar Hardness” value turned out to be 88.
In the same order, the values of “Disodium Salt of n-Octenyl Succinic Acid [C8 SAS]” are 92 and 104.
